Our source for the Kd values is PMC3401278 (ACS Chemical Biology, 2012).

Broadly, the Kd is the concentration at which binding is half-saturated.

In one test the target is E. coli His6-LpxD (Escherichia coli, UniProt P21645). Particulars: read-out: LpxD Kd, competition binding; pH 8.
The target in test [1] is T1, E. coli His6-LpxD (UDP-3-O-(R-3-hydroxyacyl)glucosamine N-acyltransferase) (E. coli, UniProt P21645 1-341).
T1 sequence (looked up): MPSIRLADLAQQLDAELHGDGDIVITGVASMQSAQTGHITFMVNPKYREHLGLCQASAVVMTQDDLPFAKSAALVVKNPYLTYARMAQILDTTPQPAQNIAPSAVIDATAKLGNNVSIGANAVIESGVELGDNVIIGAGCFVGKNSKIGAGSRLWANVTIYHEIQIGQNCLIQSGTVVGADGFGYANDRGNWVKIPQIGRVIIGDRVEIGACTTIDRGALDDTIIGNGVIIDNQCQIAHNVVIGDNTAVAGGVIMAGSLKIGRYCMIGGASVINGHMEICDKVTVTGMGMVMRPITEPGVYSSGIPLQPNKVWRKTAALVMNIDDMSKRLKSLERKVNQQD
Kind of test: fluorescence polarisation. (In general: In fluorescence polarisation assays a small probe gives low polarisation when free and higher when bound to something large.)

As to R-3-hydroxymyristoyl-ACP, the Kd on E. coli His6-LpxD is 8.8 ± 0.7 µM.

B1: R-3-hydroxymyristoyl-ACP (acyl carrier protein) (natural protein, UniProt P0A6A8 1-78, looked up)
chain: MSTIEERVKKIIGEQLGVKQEEVTNNASFVEDLGADSLDTVELVMALEEEFDTEIPDEEAEKITTVQAAIDYINGHQA
modifications: R-3-hydroxymyristoyl group on ACP (acyl-ACP)
B1 displayed a Kd in test [1] of 8.8 ± 0.7 µM.
